# Test results published in PubChem BioAssay AID488 (PCMD, 2006).
# Only a part is listed here, and it is no random draw. Activity calls are given as the source filed them. Rule as the data show it: active = inhibition above about 22% (passing the limit was not always enough); inconclusive = no clear call, values can overlap the other calls.
# Biological target: Cathepsin B (Homo sapiens) (UniProt P07858)
# Test: cathepsin B inhibitors from pooled compounds, primary screen, biochemical, compound mixtures, AMC fluorescence (AID 488);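 also: 0% = enzyme without compound and 100% = no enzyme blank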
# Conditions: Purified cathepsin B, AMC dipeptide fluorescence, stronger effect = higher value,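 ten-compound pools at 5 µM per compound and 50 µM total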
row,SMILES,inhibition
1,COC(=O)c1cc2c(s1)N=C(c1ccccc1)N(C)P2(=O)N1CCOCC1 (stereo not given),inactive: 7.29%
2,O=P1(Nc2nc3ccc(Cl)cc3s2)COc2ccccc2O1 (stereo not given),inactive: -0.885%
3,c1nnnn1CCn1cnnn1,inactive: -0.78%
4,O=P(Nc1nccs1)(c1ccccc1)c1ccccc1,inactive: 0.37%
5,O=C(OC1CN2CCC1CC2)c1cccc(Cl)c1 (stereo not given),inactive: -1.05%
6,CCc1nc2c(n1)c1c(non1O)c1c2no[n+]1[O-],inactive: 0.255%
7,Cc1c2non([O-])c-2c(C)[n+](=O)[n+]1[O-],inactive: 1.47%
8,O=C(OC1CN2CCC1CC2)C12CC3CC(CC(C3)C1)C2 (stereo not given),inactive: -8.6%
9,O=C(COc1ccccc1)OC1CN2CCC1CC2 (stereo not given),inactive: 4.78%
10,COP1(=S)c2c(C)nn(CCC#N)c2N=C(c2ccc(F)cc2)N1C (stereo not given),inactive: 2.79%
11,Cc1ccc(OCC(=O)OC2CN3CCC2CC3)cc1 (stereo not given),inactive: 0.105%
12,O=P1(Nc2ccc(Br)cn2)COc2ccccc2OC1,inactive: 0.47%
13,O=P1(Nc2ncccn2)COc2ccccc2OC1,inactive: 4.75%
14,Cc1nn(-c2ccccc2)c2c1P(=O)(N1CCOCC1)N(C)C(c1ccccc1)=N2 (stereo not given),inactive: 4.12%
15,Clc1n[nH]nc1-c1nn[nH][15n]1,inactive: 3.38%
16,O=P1(Nc2ccccn2)COc2ccccc2OC1,inactive: 3.88%
17,Cc1cccc(OCC(=O)OC2CN3CCC2CC3)c1 (stereo not given),inactive: -5.18%
18,CCOP1(=S)c2c(C)nn(CCC#N)c2N=C(c2ccc(F)cc2)N1C (stereo not given),inactive: -1.15%
19,O=P(Nc1nccs1)(c1ccccc1)c1nc2ccccc2s1 (stereo not given),inactive: 6.27%
20,CCOP1(=S)c2c(C)nn(CCC#N)c2N=C(c2ccccc2F)N1C (stereo not given),inactive: 0.63%
